How the values were obtained:
Rat Granulosa Cell = experiment: Rat granulosa cell FSH-stimulated cAMP production; details: read-out: Rat Granulosa Cell EC50 cAMP; inhibition of cAMP produced by EC70 dose of FSH (1.4 nM); maximum concentration 50 μM
Experimental: Insulin, diethylstilbesterol, androstenedione, forskolin and DMSO were purchased from Sigma (St. Louis, Mo.). Fungizone, penicillin/streptomycin, charcoal-treated heat inactivated fetal bovine serum (CT-HI-FBS) and Dulbecco's Modified Eagle Medium:Hams F12 medium containing 15 mM Hepes and L-glutamine (DMEM:F12), were purchased from GIBCO BRL (Grand Island, N.Y.).
Ovine FSH (NIADDK-oFSH-17; FSH potency=20 NIH-FSH-S1 U/mg; LH contamination=0.04 times NIH-LH-S1) was received from Ogden Bioservices Corporation, Rockville, Md. Human FSH (Fertinex), was purchased from Serono Pharmaceutical (Framingham, Mass.). Human chorionic gonadotropin (hCG) was purchased from Sigma (St Louis, Mo.).
Immature intact female rats (Wistar-derived strain; 21-23 days old) were implanted with a single pellet (Innovative Research of America, Sarasota, Fla.) containing 2.5 mg diethylstilbesterol (DES) for 3 days. On the third day, the animals were sacrificed, the ovaries were removed, and the granulosa cells were isolated essentially as described in Haynes-Johnson et al., Biol. Reprod., 61 (1), 147-153, (1999). Granulosa cells were plated at a density of 300,000 cells per ml with 0.2 ml added to each well of 96 well culture dishes (Corning, N.Y.). Cultures were incubated at 37° C. in a humidified incubator (95% air, 5% CO2) overnight (18 hours).
Androstenedione (100,000X) was prepared by dissolving the steroid in 100% ethanol, and was subsequently diluted to a final concentration of 10^−7M containing 0.1% ethanol in assay media. The assay media was serum-free, DES-free, insulin-free media, prepared by adding 5 mL pen-strep,1.5 mL fungizone and 5 μL androstenedione to 493.5 mL DMEM F-12 media.
Test compounds were solubilized in 30% dimethyl sulfoxide (DMSO) at a concentration of 10 mM before diluting to appropriate concentrations in assay medium. The final DMSO concentration in the treated cells and in the control cells was 0.75%.
Test plates containing the granulosa cells were preincubated for 18 hours at 37° C. with 95% air, 5% CO2, 100% humidity. The spent media was removed and 50 μl assay media (DMEM:F12) containing 2 mM IBMX (3-isobutyl-1-methyl-xanthine) was added to the cells. Compounds (25 μl) in the appropriate concentration were added followed 5 minutes later by an EC70 dose of FSH (25 μl; 50 ng/ml; 1.4 nM). After 30 minutes @ 22.5° C. (room temperature) the reaction was terminated by addition of 25 μL 0.5 N hydrochloric acid to each well. The amount of cAMP produced was measured by radioimmunoassay in a FlashPlate (DuPont, Boston, Mass.). To each flash plate 60 μL flash plate buffer was added followed by 40 μL acidified cell sample or cAMP standard, followed with the addition of 100 μl ^125l-cAMP trace. The FlashPlates were sealed, incubated overnight @ room temperature, and counted in a Packard TopCount (Packard Instrument Co., Meriden, Conn.). The cAMP radioimmunoassay results were calculated using DPM conversion and log-logit transformation of % binding (Excel program).

Sequences of proteins named here, by UniProt entry; tags and fusion partners are left off. Residues count along the entry.
UniProt P23945, 18-695 limits assumed: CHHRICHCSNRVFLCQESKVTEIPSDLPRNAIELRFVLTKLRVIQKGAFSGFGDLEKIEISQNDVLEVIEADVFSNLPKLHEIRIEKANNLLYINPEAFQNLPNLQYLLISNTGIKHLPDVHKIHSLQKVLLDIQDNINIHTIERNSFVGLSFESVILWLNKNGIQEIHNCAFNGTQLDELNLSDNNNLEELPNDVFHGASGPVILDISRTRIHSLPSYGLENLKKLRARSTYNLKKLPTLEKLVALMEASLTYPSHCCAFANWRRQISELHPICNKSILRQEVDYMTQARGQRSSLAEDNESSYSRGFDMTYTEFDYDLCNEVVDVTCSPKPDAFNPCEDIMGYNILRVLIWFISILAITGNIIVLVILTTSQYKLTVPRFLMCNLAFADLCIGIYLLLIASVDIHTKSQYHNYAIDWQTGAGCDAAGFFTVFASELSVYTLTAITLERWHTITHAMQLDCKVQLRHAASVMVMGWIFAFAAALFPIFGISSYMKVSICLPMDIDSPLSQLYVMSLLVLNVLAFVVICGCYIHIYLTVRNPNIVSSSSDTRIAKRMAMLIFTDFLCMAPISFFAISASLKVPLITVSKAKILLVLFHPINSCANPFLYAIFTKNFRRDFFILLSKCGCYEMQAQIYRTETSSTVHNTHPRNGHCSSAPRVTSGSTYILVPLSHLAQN

human FSH receptor = human FSH receptor (Homo sapiens, UniProt P23945); experiment: hFSHR CHO cAMP assay (rhFSHR-cLUC cells, FSH-stimulated cAMP, radioimmunoassay); details: read-out: EC50 hFSHR CHO cAMP; inhibition of cAMP produced by EC70 dose of FSH (4.85 nM); maximum concentration 50 μM

| EC50 (Rat Granulosa Cell) [nM] | EC50 (human FSH receptor) [nM] | SMILES |
| --- | --- | --- |
| 1530 | 760 | COc1ccccc1CCN(CC(=O)NCc1ccc(CN)cc1)S(=O)(=O)c1ccc(Cl)cc1Cl |
| 2470 | 1240 | COc1ccccc1CCN(CC(=O)NCc1ccc(CN)cc1)S(=O)(=O)c1ccc(Cl)c(Cl)c1 |
| 600 | 16700 | COc1ccccc1CCN(CC(=O)N[C@H]1CC[C@H](N)CC1)S(=O)(=O)c1ccc(-c2ccc(N)cc2)cc1 |
| 110 | 110 | C[C@@H](CN(CC(=O)NCC1CCC(CN)CC1)S(=O)(=O)c1ccc(-c2ccccc2Cl)cc1)c1ccccc1 (stereo partly shown) |
| 910 | 350 | Cc1ccc(-c2ccc(S(=O)(=O)N(CC(=O)NCc3ccc(CN)cc3)C[C@H](C)c3ccccc3)cc2)cc1 [206] |
| 150 | 410 | COc1cccc(-c2ccc(S(=O)(=O)N(CC(=O)NCc3ccc(CN)cc3)C[C@H](C)c3ccccc3)cc2)c1 [201] |
| 3500 | 28500 | COc1ccccc1CN(CC(=O)NCC1CCC(CN)CC1)S(=O)(=O)c1cc(Cl)ccc1Cl (stereo not shown) |
| 3220 | 33400 | COc1ccccc1CN(CC(=O)NCC1CCC(CN)CC1)S(=O)(=O)Cc1ccccc1 (stereo not shown) |
| 1080 | 3620 | COc1ccccc1CN(CC(=O)NCC1CCC(CN)CC1)S(=O)(=O)c1cc(Cl)sc1Cl (stereo not shown) |
| 1920 | 22100 | COc1ccccc1CN(CC(=O)NCC1CCC(CN)CC1)S(=O)(=O)c1ccc(Cl)s1 (stereo not shown) |
| 480 | 560 | COc1ccccc1CCN(CC(=O)NCc1ccc(CN)cc1)S(=O)(=O)c1ccc(-c2ccccc2OC)cc1 |
| 5300 | 3290 | COc1cccc(CN(CC(=O)NCC2CCC(CN)CC2)S(=O)(=O)c2ccc(-c3ccccc3OC)cc2)c1 (stereo not shown) |
| 1320 | 8390 | COc1ccccc1CCN(CC(=O)N[C@H]1CC[C@H](N)CC1)S(=O)(=O)c1ccc(-c2ccncc2)cc1 |
| 2800 | 960 | COc1ccccc1CCN(CC(=O)NCc1ccc(CN)cc1)S(=O)(=O)c1ccc(-c2cccs2)s1 |
| 8000 | 31300 | COc1ccccc1CCN(CC(=O)N[C@H]1CC[C@H](N)CC1)S(=O)(=O)c1ccc(-c2cccc(C(N)=O)c2)cc1 |
| 25100 | 2310 | COc1ccccc1CCN(CC(=O)NCc1ccc(CN)cc1)S(=O)(=O)c1cc(Cl)c(Cl)s1 |
| 400 | 630 | COc1ccccc1CCN(CC(=O)NCc1ccc(CN)cc1)S(=O)(=O)c1ccc(-c2ccccc2Cl)cc1 |
| 220 | 570 | C[C@H](CN(CC(=O)N1CCC(C2CCNCC2)CC1)S(=O)(=O)c1ccc(-c2ccccc2Cl)cc1)c1ccccc1 |
| 2150 | 6240 | COc1ccccc1CN(CC(=O)NCC1CCC(CN)CC1)S(=O)(=O)c1ccc(F)cc1 (stereo not shown) |
| 2800 | 7530 | COc1ccccc1CCN(CC(=O)NCc1ccc(CN)cc1)S(=O)(=O)c1cc(Cl)cc(Cl)c1 |
| 1010 | 2300 | COc1cccc(CN(CC(=O)NCC2CCC(CN)CC2)S(=O)(=O)c2ccc(-c3ccc(F)c(Cl)c3)cc2)c1 (stereo not shown) |
| 190 | 540 | C[C@@H](CN(CC(=O)NCc1ccc(CN)cc1)S(=O)(=O)c1ccc(-c2ccc(F)cc2)cc1)c1ccccc1 [204] |
| 720 | 8920 | COc1ccccc1CN(CC(=O)NCC1CCC(CN)CC1)S(=O)(=O)c1ccc(Cl)c(Cl)c1 (stereo not shown) |
| 550 | 28300 | COc1ccccc1CCN(CC(=O)N[C@H]1CC[C@H](N)CC1)S(=O)(=O)c1ccc(-c2cccnc2)cc1 |
| 520 | 1690 | COc1ccccc1CN(CC(=O)NCC1CCC(CN)CC1)S(=O)(=O)c1ccccc1 (stereo not shown) |
| 490 | 1330 | COc1ccccc1CCN(CC(=O)NCC1CCC(CN)CC1)S(=O)(=O)c1ccc(-c2cccc([N+](=O)[O-])c2)cc1 (stereo not shown) |
| 5860 | 5990 | COc1ccccc1CN(CC(=O)NCC1CCC(CN)CC1)S(=O)(=O)c1cccc(F)c1 (stereo not shown) |

| EC50 (Rat Granulosa Cell) [nM] | EC50 (human FSH receptor) [nM] | SMILES |
| --- | --- | --- |
| 1070 | 4820 | COc1ccccc1CN(CC(=O)NCC1CCC(CN)CC1)S(=O)(=O)c1ccc(C(C)(C)C)cc1 (stereo not shown) |
| 10200 | 12800 | COc1ccccc1CCN(CC(=O)N[C@H]1CC[C@H](N)CC1)S(=O)(=O)c1ccc(-c2ccccc2)cc1 |
| 7510 | ≥ 50000 | COc1ccccc1CN(CC(=O)NCC1CCC(CN)CC1)S(=O)(=O)c1ccccc1[N+](=O)[O-] (stereo not shown) |
| 2070 | 28500 | COc1ccccc1CN(CC(=O)NCC1CCC(CN)CC1)S(=O)(=O)c1ccc(OC)c(OC)c1 (stereo not shown) |
| 360 | 1820 | COc1ccccc1CCN(CC(=O)NCc1ccc(CN)cc1)S(=O)(=O)c1ccc(-c2ccccc2C(F)(F)F)cc1 |
| 640 | 6310 | COc1cccc(CN(CC(=O)NCC2CCC(CN)CC2)S(=O)(=O)c2ccc(-c3cccc(C(F)(F)F)c3)cc2)c1 (stereo not shown) |
| 310 | 1380 | COc1ccccc1CN(CC(=O)NCC1CCC(CN)CC1)S(=O)(=O)c1ccc(-c2ccc(F)c(Cl)c2)cc1 (stereo not shown) |
| 5550 | 840 | COc1ccccc1CCN(CC(=O)NCc1ccc(CN)cc1)S(=O)(=O)c1ccc(-c2ccccc2)cc1 |
| 290 | 1590 | COc1ccccc1CN(CC(=O)NCC1CCC(CN)CC1)S(=O)(=O)c1ccc(-c2ccc(Cl)cc2Cl)cc1 (stereo not shown) |
| 1070 | 500 | COc1ccccc1CCN(CC(=O)NCC1CCC(CN)CC1)S(=O)(=O)c1ccc(-c2ccccc2C(F)(F)F)cc1 (stereo not shown) |
| 3010 | 25000 | COc1ccccc1CN(CC(=O)NCC1CCC(CN)CC1)S(=O)(=O)c1cc(Cl)cc(Cl)c1 (stereo not shown) |
| 3890 | 37700 | COc1ccccc1CN(CC(=O)NCC1CCC(CN)CC1)S(=O)(=O)c1ccc(C(F)(F)F)cc1[N+](=O)[O-] (stereo not shown) |
| 1810 | 2230 | COc1ccc(-c2ccc(S(=O)(=O)N(CC(=O)NCC3CCC(CN)CC3)Cc3cccc(OC)c3)cc2)cc1 (stereo not shown) |
| 30 | 160 | C[C@H](CN(CC(=O)NCCCCCCN)S(=O)(=O)c1ccc(-c2ccccc2Cl)cc1)c1ccccc1 |
| 1450 | 6460 | COc1ccccc1CN(CC(=O)NCC1CCC(CN)CC1)S(=O)(=O)c1ccccc1C(F)(F)F (stereo not shown) |
| 60 | 360 | C[C@@H](CN(CC(=O)NCc1ccc(CN)cc1)S(=O)(=O)c1ccc(-c2ccccc2)cc1)c1ccccc1 [197] |
| 1350 | 1410 | COc1ccccc1CCN(CC(=O)NCc1ccc(CN)cc1)S(=O)(=O)c1cccc(F)c1 |
| 3520 | 29000 | COc1ccccc1CN(CC(=O)NCC1CCC(CN)CC1)S(=O)(=O)c1cccc(Cl)c1Cl (single isomer, unassigned) [53] |
| 200 | 830 | COc1ccccc1CCN(CC(=O)NCC1CCC(CN)CC1)S(=O)(=O)c1ccc(-c2ccccc2)cc1 (stereo not shown) |
| – | 580 | Cc1cc(C)c(-c2ccc(S(=O)(=O)N(CC(=O)NCc3ccc(CN)cc3)C[C@H](C)c3ccccc3)cc2)c(C)c1 [305] |
| – | 390 | COc1cccc(CCN(CC(=O)NCCCCCCN)S(=O)(=O)c2ccc(-c3ccccc3Cl)cc2)c1OC |
| – | 120 | COc1ccc(-c2ccc(S(=O)(=O)N(CC(=O)NCc3ccc(CN)cc3)C[C@H](C)c3ccccc3)cc2)c(OC)c1OC |
| – | 760 | Cc1cccc(Cl)c1-c1ccc(S(=O)(=O)N(CC(=O)NCc2ccc(CN)cc2)C[C@H](C)c2ccccc2)cc1 |
| – | 47800 | COc1ccccc1CN(CC(=O)N1CCNCC1)S(=O)(=O)c1ccc(-c2ccsc2)cc1 |
| – | 2900 | C[C@H](CN(CC(=O)NCCCCCN)S(=O)(=O)c1ccc(-c2cccc(F)c2)cc1)c1ccccc1 |
| – | 2880 | COc1ccccc1CCN(CC(=O)NCc1ccc(CN)cc1)S(=O)(=O)c1cccc(-c2ccccc2C)c1 |
| – | 200 | C[C@@H](CN(CC(=O)NCc1ccc(CN)cc1)S(=O)(=O)c1ccc(-c2ccc(C#N)cc2)cc1)c1ccccc1 |

From patent US6583179B2, “Substituted aminoalkylamide derivatives as antagonists of follicle stimulating hormone” (Ortho-McNeil Pharmaceutical, Inc., priority 1999, dated 2003)
